Measurements published in US10280144B2, “Pyridazine derivatives as RORc modulators” (Genentech, Inc., priority 2015, dated 2019).

Chains of the proteins cited; added tags and fusions are not shown. Residues count along the entry.
UniProt P51449, 269-508: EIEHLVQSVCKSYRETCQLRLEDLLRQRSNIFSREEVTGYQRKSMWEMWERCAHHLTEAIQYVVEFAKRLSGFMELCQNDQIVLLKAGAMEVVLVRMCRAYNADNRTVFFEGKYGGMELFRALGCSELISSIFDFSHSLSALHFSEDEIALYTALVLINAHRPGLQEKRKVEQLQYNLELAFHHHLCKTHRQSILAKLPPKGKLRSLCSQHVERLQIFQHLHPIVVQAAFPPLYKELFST

Molecular target: RORc ligand binding domain (Homo sapiens (Human), UniProt P51449)
Assay: In Vitro RORc Ligand Binding Assay
Details: radioligand 25-[3H]hydroxycholesterol

Row | SMILES | IC50
1 | CCN(C[C@@]12CC[C@@H](c3cc(-c4c(F)cccc4F)nnc31)C2(C)C)C(=O)CC1CCS(=O)(=O)C1 (stereo partly drawn) [Compound 58, N-(((5R,8S)-3-(2,6-difluorophenyl)-9,9-dimethyl-5,6,7,8-tetrahydro-5,8-methanocinnolin-8-yl)methyl)-2-(1,1-dioxidotetrahydrothiophen-3-yl)-N-ethylacetamide] | 38.6 nM
2 | CCN(C[C@@]12CC[C@@H](c3cc(-c4c(F)cccc4F)nnc31)C2(C)C)C(=O)C1CCCN(C(N)=O)C1 (stereo partly drawn) [Compound 59, N3-(((5R,8S)-3-(2,6-difluorophenyl)-9,9-dimethyl-5,6,7,8-tetrahydro-5,8-methanocinnolin-8-yl)methyl)-N3-ethylpiperidine-1,3-dicarboxamide] | 81.2 nM
3 | CCN(C[C@@]12CC[C@@H](c3cc(-c4c(F)cccc4F)nnc31)C2(C)C)C(=O)CC1Oc2ccccc2NC1=O (stereo partly drawn) [Compound 60, N-(((5R,8S)-3-(2,6-difluorophenyl)-9,9-dimethyl-5,6,7,8-tetrahydro-5,8-methanocinnolin-8-yl)methyl)-N-ethyl-2-(3-oxo-3,4-dihydro-2H-benzo[b][1,4]oxazin-2-yl)acetamide] | 13.2 nM
4 | CCN(C[C@@]12CC[C@@H](c3cc(-c4c(F)cccc4F)nnc31)C2(C)C)C(=O)C1CCCN1S(C)(=O)=O (stereo partly drawn) [Compound 61, N-(((5R,8S)-3-(2,6-difluorophenyl)-9,9-dimethyl-5,6,7,8-tetrahydro-5,8-methanocinnolin-8-yl)methyl)-N-ethyl-1-(methylsulfonyl)pyrrolidine-2-carboxamide] | 60.8 nM
5 | CCN(C[C@@]12CC[C@@H](c3cc(-c4c(F)cccc4F)nnc31)C2(C)C)C(=O)c1ccc(NC(C)=O)cc1 [Compound 62, 4-acetamido-N-(((5R,8S)-3-(2,6-difluorophenyl)-9,9-dimethyl-5,6,7,8-tetrahydro-5,8-methanocinnolin-8-yl)methyl)-N-ethylbenzamide] | 21.3 nM
6 | CCN(C[C@@]12CC[C@@H](c3cc(-c4c(F)cccc4F)nnc31)C2(C)C)C(=O)c1ccc2[nH]c(C)nc2c1 [Compound 63, N-(((5R,8S)-3-(2,6-difluorophenyl)-9,9-dimethyl-5,6,7,8-tetrahydro-5,8-methanocinnolin-8-yl)methyl)-N-ethyl-2-methyl-1H-benzo[d]imidazole-5-carboxamide] | 37 nM
7 | CCN(C[C@@]12CC[C@@H](c3cc(-c4c(F)cccc4F)nnc31)C2(C)C)C(=O)c1ccc(-c2ncccn2)cc1 [Compound 64, N-(((5R,8S)-3-(2,6-difluorophenyl)-9,9-dimethyl-5,6,7,8-tetrahydro-5,8-methanocinnolin-8-yl)methyl)-N-ethyl-4-(pyrimidin-2-yl)benzamide] | 12.1 nM
8 | CCN(C[C@@]12CC[C@@H](c3cc(-c4c(F)cccc4F)nnc31)C2(C)C)C(=O)c1cccc(-n2cnnc2)c1 [Compound 66, N-(((5R,8S)-3-(2,6-difluorophenyl)-9,9-dimethyl-5,6,7,8-tetrahydro-5,8-methanocinnolin-8-yl)methyl)-N-ethyl-3-(4H-1,2,4-triazol-4-yl)benzamide] | 40.6 nM
9 | CCN(C[C@@]12CC[C@@H](c3cc(-c4c(F)cccc4F)nnc31)C2(C)C)C(=O)c1ccc(-c2nnn(C)n2)cc1 [Compound 67, N-(((5R,8S)-3-(2,6-difluorophenyl)-9,9-dimethyl-5,6,7,8-tetrahydro-5,8-methanocinnolin-8-yl)methyl)-N-ethyl-4-(2-methyl-2H-tetrazol-5-yl)benzamide] | 13.4 nM
10 | CCN(C[C@@]12CC[C@@H](c3cc(-c4c(F)cccc4F)nnc31)C2(C)C)C(=O)c1ccc(S(=O)(=O)NC)cc1 [Compound 68, N-(((5R,8S)-3-(2,6-difluorophenyl)-9,9-dimethyl-5,6,7,8-tetrahydro-5,8-methanocinnolin-8-yl)methyl)-N-ethyl-4-(N-methylsulfamoyl)benzamide] | 15.5 nM
11 | CCN(C[C@@]12CC[C@@H](c3cc(-c4c(F)cccc4F)nnc31)C2(C)C)C(=O)c1ccc(Cn2nnnc2C)cc1 [Compound 69, N-(((5R,8S)-3-(2,6-difluorophenyl)-9,9-dimethyl-5,6,7,8-tetrahydro-5,8-methanocinnolin-8-yl)methyl)-N-ethyl-4-((5-methyl-1H-tetrazol-1-yl)methyl)benzamide] | 24.3 nM
12 | CCN(C[C@@]12CC[C@@H](c3cc(-c4c(F)cccc4F)nnc31)C2(C)C)C(=O)c1ccc(N2CCOCC2)cc1 [Compound 70, N-(((5R,8S)-3-(2,6-difluorophenyl)-9,9-dimethyl-5,6,7,8-tetrahydro-5,8-methanocinnolin-8-yl)methyl)-N-ethyl-4-morpholinobenzamide] | 33.1 nM
13 | CCN(C[C@@]12CC[C@@H](c3cc(-c4c(F)cccc4F)nnc31)C2(C)C)C(=O)c1ccc(C#N)nc1 [Compound 74, 6-cyano-N-(((5R,8S)-3-(2,6-difluorophenyl)-9,9-dimethyl-5,6,7,8-tetrahydro-5,8-methanocinnolin-8-yl)methyl)-N-ethylnicotinamide] | 22.5 nM
14 | CCN(C[C@@]12CC[C@@H](c3cc(-c4c(F)cccc4F)nnc31)C2(C)C)C(=O)c1n[nH]c2cc(F)ccc12 [Compound 77, N-(((5R,8S)-3-(2,6-difluorophenyl)-9,9-dimethyl-5,6,7,8-tetrahydro-5,8-methanocinnolin-8-yl)methyl)-N-ethyl-6-fluoro-1H-indazole-3-carboxamide] | 9.2 nM
15 | CCN(C[C@@]12CC[C@@H](c3cc(-c4c(F)cccc4F)nnc31)C2(C)C)C(=O)c1c[nH]cn1 [Compound 78, N-(((5R,8S)-3-(2,6-difluorophenyl)-9,9-dimethyl-5,6,7,8-tetrahydro-5,8-methanocinnolin-8-yl)methyl)-N-ethyl-1H-imidazole-4-carboxamide] | 31.4 nM
16 | CCN(C[C@@]12CC[C@@H](c3cc(-c4c(F)cccc4F)nnc31)C2(C)C)C(=O)c1ccc(OCc2noc(C)n2)cc1 [Compound 81, N-(((5R,8S)-3-(2,6-difluorophenyl)-9,9-dimethyl-5,6,7,8-tetrahydro-5,8-methanocinnolin-8-yl)methyl)-N-ethyl-4-((5-methyl-1,2,4-oxadiazol-3-yl)methoxy)benzamide] | 14.7 nM
17 | CCN(C[C@@]12CC[C@@H](c3cc(-c4c(F)cccc4F)nnc31)C2(C)C)C(=O)c1cc[nH]n1 [Compound 83, N-(((5R,8S)-3-(2,6-difluorophenyl)-9,9-dimethyl-5,6,7,8-tetrahydro-5,8-methanocinnolin-8-yl)methyl)-N-ethyl-1H-pyrazole-3-carboxamide] | 21.3 nM
18 | CCN(C[C@@]12CC[C@@H](c3cc(-c4c(F)cccc4F)nnc31)C2(C)C)C(=O)c1nc2ccccc2c(=O)[nH]1 [Compound 89, N-(((5R,8S)-3-(2,6-difluorophenyl)-9,9-dimethyl-5,6,7,8-tetrahydro-5,8-methanocinnolin-8-yl)methyl)-N-ethyl-4-oxo-3,4-dihydroquinazoline-2-carboxamide] | 105 nM
19 | CCN(C[C@@]12CC[C@@H](c3cc(-c4c(F)cccc4F)nnc31)C2(C)C)C(=O)C1CN(C(=O)C(C)C)C1 [Compound 91, N-(((5R,8S)-3-(2,6-difluorophenyl)-9,9-dimethyl-5,6,7,8-tetrahydro-5,8-methanocinnolin-8-yl)methyl)-N-ethyl-1-isobutyrylazetidine-3-carboxamide] | 68.7 nM
20 | CCN(C[C@@]12CC[C@@H](c3cc(-c4c(F)cccc4F)nnc31)C2(C)C)C(=O)C1CN(S(C)(=O)=O)C1 [Compound 92, N-(((5R,8S)-3-(2,6-difluorophenyl)-9,9-dimethyl-5,6,7,8-tetrahydro-5,8-methanocinnolin-8-yl)methyl)-N-ethyl-1-(methylsulfonyl)azetidine-3-carboxamide] | 28.1 nM
21 | CCN(C[C@@]12CC[C@@H](c3cc(-c4c(F)cccc4F)nnc31)C2(C)C)C(=O)c1nn(C)cc1-c1ccno1 [Compound 93, N-(((5R,8S)-3-(2,6-difluorophenyl)-9,9-dimethyl-5,6,7,8-tetrahydro-5,8-methanocinnolin-8-yl)methyl)-N-ethyl-4-(isoxazol-5-yl)-1-methyl-1H-pyrazole-3-carboxamide] | 72.9 nM
22 | CCN(C[C@@]12CC[C@@H](c3cc(-c4c(F)cccc4F)nnc31)C2(C)C)C(=O)c1cc(C(F)(F)F)n(C)n1 [Compound 94, N-(((5R,8S)-3-(2,6-difluorophenyl)-9,9-dimethyl-5,6,7,8-tetrahydro-5,8-methanocinnolin-8-yl)methyl)-N-ethyl-1-methyl-5-(trifluoromethyl)-1H-pyrazole-3-carboxamide] | 5.5 nM
23 | CCN(C[C@@]12CC[C@@H](c3cc(-c4c(F)cccc4F)nnc31)C2(C)C)C(=O)CCN1CCN(C(N)=O)CC1 [Compound 95, 4-(3-((((5R,8S)-3-(2,6-difluorophenyl)-9,9-dimethyl-5,6,7,8-tetrahydro-5,8-methanocinnolin-8-yl)methyl)(ethyl)amino)-3-oxopropyl)piperazine-1-carboxamide] | 152 nM
24 | CCN(C[C@@]12CC[C@@H](c3cc(-c4c(F)cccc4F)nnc31)C2(C)C)C(=O)c1cc(-c2cn(C)nc2C)on1 [Compound 96, N-(((5R,8S)-3-(2,6-difluorophenyl)-9,9-dimethyl-5,6,7,8-tetrahydro-5,8-methanocinnolin-8-yl)methyl)-5-(1,3-dimethyl-1H-pyrazol-4-yl)-N-ethylisoxazole-3-carboxamide] | 10.4 nM
25 | CCN(C[C@@]12CC[C@@H](c3cc(-c4c(F)cccc4F)nnc31)C2(C)C)C(=O)c1ccc(-c2noc(C3CC3)n2)cc1 [Compound 98, 4-(5-cyclopropyl-1,2,4-oxadiazol-3-yl)-N-(((5R,8S)-3-(2,6-difluorophenyl)-9,9-dimethyl-5,6,7,8-tetrahydro-5,8-methanocinnolin-8-yl)methyl)-N-ethylbenzamide] | 6.9 nM
26 | CCN(C[C@@]12CC[C@@H](c3cc(-c4c(F)cccc4F)nnc31)C2(C)C)C(=O)CN1C(=O)CNC1=O [Compound 104, N-(((5R,8S)-3-(2,6-difluorophenyl)-9,9-dimethyl-5,6,7,8-tetrahydro-5,8-methanocinnolin-8-yl)methyl)-2-(2,5-dioxoimidazolidin-1-yl)-N-ethylacetamide] | 80 nM
